Rows were chosen to be rich in hits. Some 1.2% of all compounds tested hit in one or more screens of this group.
N-glyco inh = increase of ERlucT glycosylation luciferase signal, primary screen, N-linked glycosylation inhibitor project, D54 ERlucT cells, luminescence, set 2; reporter increase, % at 12.5 µM; D54 ERlucT glycosylation luciferase reporter, 24 h; percent of 100 nM tunicamycin response; hit rate 0.23% among 360,000;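 active = mean luciferase reporter signal, scaled so untreated is 0 and the glycosylation-blocking control 100, at or above a set limit in every replicate; inconclusive = mean reaches the limit but not every replicate does; inactive = mean below the limit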;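 also: luciferase carries N-glycosylation sites so blocking glycosylation raises the light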
Statin myotox sup = suppressors of statin myotoxicity in C2C12 myotubes, primary screen, cell-based, single point, plate reader | C2C12 myotubes + simvastatin, ATP luminescence, 48 h; scaled: DMSO 0, geranylgeraniol control 100 | rescue of ATP level, % at 7.49 µM | hit rate 0.78% among 330,000 | AID 602340, 2012;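 active = mean ATP rescue above about 67%, or every replicate alone reaching that limit, limit read from the data, passing the limit was not always enough; inconclusive = no clear call, values can overlap the other calls; inactive = mean under the limit and some replicate under it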;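 also: myotubes were challenged with 10 µM simvastatin during compound exposure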
Yeast UUG start = modulators of start codon recognition fidelity in yeast; AID 602363; activity score, % at 18.7 µM; S. cerevisiae UUG-firefly luciferase reporter, luminescence/redox ratio; actives 0.13% (n = 350,000);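 active = replicate mean at a twofold rise or more, about +100% in these data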;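 note: firefly luciferase made from a UUG start codon reports start codon fidelity; reporter light over untreated wells divided by growth signal over untreated wells; some hits fall short of that in this replicate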
miR122 inh = miR-122 Renilla sensor signal increase in Huh7, primary screen, miR-122 inhibitor project, cell-based, single point, plate reader; Huh7 miR-122 Renilla luciferase sensor, 48 h; neutral wells = 0, positive control = 100; activation (reporter increase), % at 12.5 µM; hit rate 0.3% among 340,000; AID 602342, 2012;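 active = mean replicate activation score at least 90 and every replicate individually at or above 90; inconclusive = only one of the two criteria met; inactive = neither criterion met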;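 also: higher luciferase means less miR-122 activity so hits act as miR-122 inhibitors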
Cneo AK release = Cryptococcus neoformans cell lysis inducers, primary screen, AK release luminescence, single concentration; C. neoformans lysis, adenylate kinase release luminescence, 4 h; normalised: neutral wells 0, clomiphene wells 100; lysis activity, % at 15 µM; hit rate 0.2% among 360,000; AID 651654, 2012;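 active = mean lysis activity across replicates of at least 80%, whatever share of replicates individually reach that level; inactive = mean lysis activity below 80%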
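Material – Cryptococcus neoformans yeast cells · Quantity – 5 × 10^6 yeast cells/mL · Buffer or medium – YPD medium · Compound – single dose · Timing – 4 h static compound exposure, 37 °C, read 1 h post-reagent · Signal – adenylate kinase release luminescence · Read-out basis – lysis from increased AK signal · Benchmarks – Clomiphene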
Of the large screens only hits and unclear results are named; the others gave an inactive call.

C[C@@H]1CN([C@H](C)CO)C(=O)Cc2cc(NC(=O)Cc3ccccc3)ccc2O[C@@H]1CN(C)S(=O)(=O)c1ccccc1	none (no result: N-glyco inh)
CCCCC(=O)NC(=S)NNC(=O)CC#N	none
CCCCC(=O)NNC(=S)NC(=O)CCC	Statin myotox sup 112
COC(=O)c1ccc(NC(=O)C2C3C=CC(C3)C2C(=O)O)cc1 (stereo not drawn)	none
COC(=O)c1ccc(NC(=O)C2C3C=CC(O3)C2C(=O)O)cc1 (stereo not drawn)	Statin myotox sup 90
Cc1cc(-n2c(SCC(=O)NCCC3=CCCCC3)nc3n[nH]c(C)c3c2=N)ccc1Cl	N-glyco inh 59
CC(C)(O)C#Cc1ccc([C@H]2[C@H](CO)N3CCCCN(C(=O)c4ccncc4)C[C@@H]23)cc1	none (no result: N-glyco inh)
O=C(CCC(=O)c1cccs1)OCc1ccc([N+](=O)[O-])cc1	none (no result: miR122 inh)
O=C(/C=C/Sc1ccc(C(F)(F)F)cn1)c1ccccc1	N-glyco inh 37
O=C(CSc1ccc(C(F)(F)F)cn1)Nc1ccccc1	none (no result: miR122 inh)
C[C@@H]1CCCCO[C@@H](CN(C)CC2CCCCC2)[C@@H](C)CN([C@H](C)CO)C(=O)c2cc(NS(C)(=O)=O)ccc2O1	none (no result: N-glyco inh)
CO[C@@H]1CN(C)C(=O)c2ccc(NS(=O)(=O)CC(F)(F)F)cc2OC[C@@H](C)N(C(=O)c2ccc3c(c2)OCO3)C[C@@H]1C	none (no result: N-glyco inh, Yeast UUG start, miR122 inh, Cneo AK release)
CC(=O)Oc1cc(OC(C)=O)c2c(C)cc(=O)oc2c1	Statin myotox sup 97
C=CCc1cccc(OC)c1OCCOCCNCCO	Statin myotox sup 83
COc1ccc(S(=O)(=O)Nc2ccc3c(c2)C(=O)N([C@H](C)CO)C[C@@H](C)[C@@H](CN(C)Cc2ccc4c(c2)OCO4)OCCCC[C@@H](C)O3)cc1	none (no result: N-glyco inh)
CCCCCCCNC(=O)C1(CC2CC(c3ccc(Cl)cc3)=NO2)CCN(C(=O)OC(C)(C)C)CC1 (stereo not drawn)	Statin myotox sup 121
CC(C)(C)OC(=O)N1CCC(CC2CC(c3ccccc3)=NO2)(C(=O)O)CC1 (stereo not drawn)	none (no result: miR122 inh)
CCOc1ccc(OCCCCN(C)C)cc1	Statin myotox sup 90
CCOc1ccc(OCCCN(C)C)cc1	none (no result: Statin myotox sup, Yeast UUG start, Cneo AK release)
O=C(C[C@H]1C=C[C@@H](NS(=O)(=O)c2ccccc2)[C@H](CO)O1)N1CCc2ccccc2C1	none (no result: N-glyco inh, miR122 inh)
COc1ccc(CCN2C(=O)C3C(C2=O)C2C=CC3C23CC3)cc1OC (stereo not drawn)	Statin myotox sup 118
CNC[C@H]1Oc2cc(C#CCC3CCCC3)ccc2S(=O)(=O)N([C@@H](C)CO)C[C@@H]1C	none (no result: N-glyco inh, Statin myotox sup)
CC(C)(C)c1nnc2sc(SCC(=O)c3ccc4c(c3)OCCO4)nn2c1=O	N-glyco inh 40
Cc1ccc(C(=O)CSc2nn3c(=O)c(C(C)(C)C)nnc3s2)cc1	N-glyco inh inconclusive
CCCCOc1cccc(C(=O)O)c1	none
CCCOc1cccc(C(=O)O)c1	Statin myotox sup 98
CN1C(=O)c2cc(NC(=O)C3CC3)ccc2OC[C@@H]2O[C@H](CC(=O)NCCN3CCCC3)CC[C@@H]21	none (no result: N-glyco inh)
CCN(CC)CCNc1ccc(C)c2sc3ccc(O)cc3c(=O)c12	N-glyco inh 54 (no result: Statin myotox sup, Yeast UUG start, Cneo AK release)
CN(C)CCNc1ccc(CO)c2oc3ccc(O)cc3c(=O)c12	none (no result: Statin myotox sup, Yeast UUG start, Cneo AK release)
C[C@H]1CN([C@@H](C)CO)C(=O)Cc2cc(NC(=O)Cn3cnnn3)ccc2O[C@@H]1CN(C)S(=O)(=O)c1ccc(F)cc1	none (no result: N-glyco inh)
CCOc1ccccc1NC(=O)Cn1cnc2c(cnn2-c2ccc(C)c(C)c2)c1=O	Statin myotox sup 132
COc1ccc(NC(=O)Cn2cnc3c(cnn3-c3ccc(C)c(C)c3)c2=O)c(OC)c1	none (no result: miR122 inh)
O=C(Cn1cnc2c(cnn2-c2ccccc2)c1=O)c1ccc(Cl)cc1	Statin myotox sup 143
O=c1c2cnn(-c3ccc(F)cc3)c2ncn1Cc1ccccc1	Statin myotox sup 158
CC1CCN(c2ccc(C(=O)NCc3cccs3)cn2)CC1	none
C[C@H]1CN([C@@H](C)CO)C(=O)Cc2cc(NC(=O)NC3CCCCC3)ccc2O[C@H]1CN(C)C(=O)Nc1ccc2c(c1)OCO2	none (no result: N-glyco inh)
COc1cccc(NC(=O)CN(C)C(=O)c2ccc(-c3ccccc3Cl)o2)c1	none
COc1cc(/C=C/c2onc(C)c2[N+](=O)[O-])cc(OC)c1OC	N-glyco inh 37 (no result: Statin myotox sup, Yeast UUG start, miR122 inh, Cneo AK release)
CCN1CCN(C(=O)c2ccc(CS(=O)(=O)Cc3ccccc3F)o2)CC1	Statin myotox sup 95
C[C@@H]1CN([C@H](C)CO)C(=O)c2cc(C3=CCCCC3)cnc2O[C@H]1CN(C)C(=O)c1cccnc1	none (no result: N-glyco inh, miR122 inh)
Cc1cccc(-c2nnc(-c3cccc4ccccc34)o2)c1	miR122 inh 146
O=C(N/N=C/c1ccccc1[N+](=O)[O-])c1ccc(CN2CCOCC2)cc1	none (no result: Statin myotox sup, Yeast UUG start, miR122 inh, Cneo AK release)
Cc1cc(/C=N/NC(=O)c2ccc(CN3CCOCC3)cc2)c(C)n1-c1ccccc1	Statin myotox sup 116
CC(C)NC(=O)Nc1cccc2c1O[C@@H](CN(C)C(=O)NC(C)C)[C@@H](C)CN([C@H](C)CO)C2=O	none (no result: N-glyco inh)
Cc1ccc(NC(=O)CSCC(=O)N(C)CC(=O)Nc2ccccc2C(F)(F)F)cc1	none
O=c1cc(/C=C/c2ccccc2)oc2ccccc12	Statin myotox sup 138
O=c1cc(-c2ccccc2)oc2ccccc12	none
C[C@@H]1CN([C@H](C)CO)C(=O)c2cccc(NS(=O)(=O)c3cccs3)c2O[C@H]1CN(C)C(=O)Nc1ccc(C(F)(F)F)cc1	Statin myotox sup 73 (no result: N-glyco inh)
C[C@@H]1CN([C@@H](C)CO)C(=O)c2cccc(NS(=O)(=O)c3cccs3)c2O[C@H]1CN(C)C(=O)Nc1ccc(C(F)(F)F)cc1	none (no result: N-glyco inh)
C[C@@H]1CN([C@@H](C)CO)C(=O)c2cccc(NS(=O)(=O)c3cccs3)c2O[C@@H]1CN(C)C(=O)Nc1ccc(C(F)(F)F)cc1	Statin myotox sup 96 (no result: N-glyco inh)
C[C@@H]1CN([C@@H](C)CO)C(=O)c2c(c3ccccc3n2C)-c2ccccc2CO[C@H]1CN(C)C	none (no result: N-glyco inh, Statin myotox sup, Yeast UUG start, miR122 inh)
COc1ccc(CNS(=O)(=O)c2ccc3c(c2)C(C)(C)C(=O)N3C)cc1	none
COc1cc(NS(=O)(=O)c2ccc3c(c2)C(C)(C)C(=O)N3C)cc(OC)c1	miR122 inh 98
CCNC(=O)Nc1ccc2c(c1)C(=O)N(C)[C@H]1CC[C@H](CC(=O)Nc3cccc(F)c3)O[C@@H]1CO2	none (no result: N-glyco inh)
Cn1c(=O)c2cc(S(=O)(=O)NCCC(=O)NCCC3=CCCCC3)ccc2n(C)c1=O	miR122 inh 103 (no result: Statin myotox sup)
CCCCn1c(SCc2cccnc2)nc2c1c(=O)n(C)c(=O)n2C	none
CCCCn1c(SCc2ccccn2)nc2c1c(=O)n(C)c(=O)n2C	Statin myotox sup 117
O=C(Nc1cccc(-n2cnnn2)c1)c1ccco1	Statin myotox sup 111

Screening results (PubChem BioAssay)
